The numbers were not newly measured in patent publication US8450266B2, “Analogues of glucose-dependent insulinotropic polypeptide” (Ipsen Pharma S.A.S., priority 2008, dated 2013), which cites them from elsewhere.

The conditions of this data set: unmodified GIP; Said and Mutt, 1970; cited from earlier work.

For the substance “Glucose-dependent insulinotropic polypeptide [GIP]”, the in vivo half-life entry is “about 2 minutes”.
